Reference: patent EP0542525B1, “Antithrombotic agents” (ELI LILLY AND COMPANY, priority 1991, dated 1993)
pKd: −log10 of the molar value.

Target: thrombin (Bos taurus, UniProt P00735)
Assay: biochemical

Row | pKd | Compound
1 | 7.81 | CC(C)(C)OC(=O)N[C@H](Cc1ccccc1)C(=O)N1CC[C@H]1C(=O)N[C@H](C=O)CCCNC(=N)N [Boc-D-Phe-L-Azt-L-Arg-H, N-(N-t-Butyloxycarbonyl)-D-phenylalanyl-L-azetidinyl-4-arginine aldehyde diacetate]
2 | 8.17 | CC(C)(C)OC(=O)N[C@@H](C(=O)N1CC[C@H]1C(=O)N[C@H](C=O)CCCN=C(N)N)c1ccccc1 [Boc-D-Phg-L-Azt-L-Arg-H, N-(N-t-Butyloxycarbonyl-D-phenylglycyl)-L-azetidinyl-L-arginine aldehyde diacetate]
